PubChem BioAssay AID1792 (The Scripps Research Institute Molecular Screening Center, 2009)
Only a part is listed here, and it is no random draw. Activity calls are given as the source filed them. Rule as the data show it: active = inhibition above about 75%; inactive = the rest.

The chains behind the UniProt entries cited, without tags or fusion partners.
UniProt Q9Y5S8, whole entry: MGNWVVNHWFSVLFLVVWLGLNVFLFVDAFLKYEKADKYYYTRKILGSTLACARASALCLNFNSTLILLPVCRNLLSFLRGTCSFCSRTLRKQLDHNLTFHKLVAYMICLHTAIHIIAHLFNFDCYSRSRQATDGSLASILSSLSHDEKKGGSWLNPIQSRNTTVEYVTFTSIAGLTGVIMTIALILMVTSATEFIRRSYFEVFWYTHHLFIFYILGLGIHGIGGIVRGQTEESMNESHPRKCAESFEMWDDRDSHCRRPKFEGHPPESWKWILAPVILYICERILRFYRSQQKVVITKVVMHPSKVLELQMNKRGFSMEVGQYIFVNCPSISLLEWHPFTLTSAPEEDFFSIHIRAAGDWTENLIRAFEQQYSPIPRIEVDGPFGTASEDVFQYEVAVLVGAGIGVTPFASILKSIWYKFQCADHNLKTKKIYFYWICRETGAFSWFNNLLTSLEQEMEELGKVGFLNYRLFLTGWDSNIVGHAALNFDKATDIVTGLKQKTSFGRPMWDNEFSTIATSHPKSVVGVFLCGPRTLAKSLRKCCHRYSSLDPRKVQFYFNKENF

Molecular target: NADPH oxidase 1 (Homo sapiens) (UniProt Q9Y5S8)
Assay: blocks human NADPH oxidase 1 activity (AID 1792)
Conditions: HT29 cells, luminol chemiluminescence ROS; at 6.7 µM; active compounds read high

| Compound | inhibition |
| --- | --- |
| O=[N+]([O-])C1([N+](=O)[O-])COCOC1 | inactive: -16.9% |
